Results on 35 compounds are retold here after patent EP4843985A1, “TRIAZOLOPYRIMIDINE DERIVATIVE, PREPARATION METHOD THEREFOR AND USE THEREOF” (dated 2026).

By UniProt entry, the sequences of proteins in these tests, tags left out. Residues count along the entry.
UniProt Q14191, 517-1238 limits assumed: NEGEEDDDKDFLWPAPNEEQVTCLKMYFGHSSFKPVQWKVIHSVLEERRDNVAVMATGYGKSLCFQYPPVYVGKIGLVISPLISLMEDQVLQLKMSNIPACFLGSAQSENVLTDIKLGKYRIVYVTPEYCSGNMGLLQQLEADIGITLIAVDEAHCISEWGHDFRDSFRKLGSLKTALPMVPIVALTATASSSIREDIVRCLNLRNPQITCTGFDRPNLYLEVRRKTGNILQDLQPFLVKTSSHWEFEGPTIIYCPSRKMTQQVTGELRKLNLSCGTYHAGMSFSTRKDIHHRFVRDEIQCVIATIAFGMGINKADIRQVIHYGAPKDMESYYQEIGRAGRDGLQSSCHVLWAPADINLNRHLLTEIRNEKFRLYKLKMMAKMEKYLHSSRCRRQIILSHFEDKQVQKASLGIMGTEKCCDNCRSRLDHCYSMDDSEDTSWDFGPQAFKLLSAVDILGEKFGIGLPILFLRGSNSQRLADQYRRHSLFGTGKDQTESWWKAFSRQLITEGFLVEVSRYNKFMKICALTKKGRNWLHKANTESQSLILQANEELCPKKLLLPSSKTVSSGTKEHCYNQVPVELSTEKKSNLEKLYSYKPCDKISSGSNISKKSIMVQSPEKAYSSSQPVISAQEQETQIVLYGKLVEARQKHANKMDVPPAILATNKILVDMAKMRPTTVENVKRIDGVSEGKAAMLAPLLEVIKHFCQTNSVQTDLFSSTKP

The target of assay [1] is WRN protein (AA N517-P1238) (Homo sapiens, UniProt Q14191). The assay is described as follows: In vitro WRN enzymatic activity assay (ADP-Glo ATPase assay). As to conditions: read-out: ADP-Glo, 10 nM WRN enzyme, 3 hours pre-incubation at 25°C, ssDNA substrate. (ADP-Glo first removes unused ATP, then detects ADP through luciferase.)
The next assay has as its system SW48 (CRC, MSI). In words: Cell proliferation inhibition assay (CellTiter-Glo), SW48.
In the next assay the test system is SW620 (CRC, MSS). In words: Cell proliferation inhibition assay (CellTiter-Glo), SW620. The note with it: read-out: SW620 (CRC, MSS), 120 hours. (In general: Cellular ATP, detected with luciferase, serves as a proxy for viable cell number.)
Where [2] appears, read: read-out: SW48 (CRC, MSI), 120 hours.

Values joined by “and” are separate entries in the source; they are usually repeats but may differ in a detail not shown here. Identical values can stand only once. Like-named read-outs stand apart in the source and are kept apart here.

With `CCc1c(N2CCN(C(=O)c3ncnc(C)c3O)CC2)c(=O)n2nc(C3=CCN(C(=O)OC4CCOCC4)CC3)nc2n1CC(=O)Nc1ccc(C(F)(F)F)cc1Cl`, the IC50 was 0.0026 µM in assay [1]; 0.016 µM with SW48 (CRC, MSI) (setting [2]); over 10 µM in the assay with SW620 (CRC, MSS).
In the case of `CCc1c(N2CCN(C(=O)c3ncnc(C)c3O)CC2)c(=O)n2nc(C3=CCC(S(=O)(=O)C(C)(C)C)CC3)nc2n1CC(=O)Nc1ccc(C(F)(F)F)cc1Cl` (centres unmarked), the IC50 in assay [1] is 0.0047 µM; in the assay on SW48 (CRC, MSI) (setting [2]), 0.0503 µM; with SW620 (CRC, MSS) it was over 10 µM.
Consider `CCc1c(N2CCN(C(=O)c3ncnc(C)c3O)CC2)c(=O)n2nc(C3=CCC(OC(=O)N4CCCC4)CC3)nc2n1CC(=O)Nc1ccc(C(F)(F)F)cc1Cl` (centres unmarked), for which the IC50 in assay [1] is 0.0023 µM; with SW48 (CRC, MSI) (setting [2]) it was 0.0589 µM; in the assay with SW620 (CRC, MSS), over 10 µM.
With `CCc1c(N2CCN(C(=O)c3ncnc(C)c3O)CC2)c(=O)n2nc(C3=CCN(C(=O)N(C)C)CC3)nc2n1CC(=O)Nc1ccc(C(F)(F)F)cc1Cl`, the IC50 in assay [1] is 0.00521 µM; in the assay on SW48 (CRC, MSI) (setting [2]), 0.0506 µM; with SW620 (CRC, MSS) it was over 10 µM.
On to `[2H]C1([2H])CCC(c2nc3n4c(c(N5CCN(C(=O)c6ncnc(C)c6O)[C@H]6CC[C@@H]65)c(=O)n3n2)C(C)CC4C(=O)Nc2ccc(C(F)(F)F)cc2Cl)=CCO1` (single isomer, unassigned), for which the IC50 was 0.00219 µM in assay [1]; 0.0048 µM in the assay on SW48 (CRC, MSI) (setting [2]); over 10 µM with SW620 (CRC, MSS).
The matching figures for `CCc1c(N2CCN(C(=O)c3ncnc(C)c3O)CC2)c(=O)n2nc(C3=CCN(C(=O)OC4CC4)CC3)nc2n1CC(=O)Nc1ccc(C(F)(F)F)cc1Cl`: 0.0069 µM, 0.038 µM and over 10 µM.
The corresponding values for `[2H]C1([2H])C=C(c2nc3n(CC(=O)Nc4ccc(C(F)(F)F)cc4Cl)c(CC)c(N4CCN(C(=O)c5ncnc(C)c5O)CC4)c(=O)n3n2)CCCO1` are 0.00216 µM, 0.0429 µM and over 10 µM.
On to `[2H]C1([2H])CCC(c2nc3n4c(c(N5CCN(C(=O)c6ncnc(C)c6O)C(C)C5)c(=O)n3n2)C(C)CC4C(=O)Nc2scc(C(F)(F)F)c2C)=CCO1` (single isomer, unassigned) [306-P4], for which the IC50 in assay [1] is 0.00112 µM; in the assay with SW48 (CRC, MSI) (setting [2]) it was 0.0184 µM; in the assay on SW620 (CRC, MSS), over 10 µM.
The corresponding values for `CCc1c(N2CCN(C(=O)c3ncnc(C)c3O)CC2)c(=O)n2nc(C3=CCN(C(=O)OC4CCC4)CC3)nc2n1CC(=O)Nc1ccc(C(F)(F)F)cc1Cl` are 0.00765 µM, 0.0518 µM and over 10 µM.
The matching figures for `CCc1c(N2CCN(C(=O)c3ncnc(C)c3O)CC2)c(=O)n2nc(C3=CCOCCC3)nc2n1CC(=O)Nc1ccc(C(F)(F)F)cc1Cl`: 0.00663 µM, 0.0508 µM and over 10 µM.
`CCc1c(N2CCN(C(=O)c3ncnc(C4CC4)c3O)CC2)c(=O)n2nc(C3=CCOCCC3)nc2n1CC(=O)Nc1ccc(C(F)(F)F)cc1Cl`: the IC50 is 0.00424 µM in assay [1]; 0.027 µM with SW48 (CRC, MSI) (setting [2]); over 10 µM in the assay on SW620 (CRC, MSS).
As to `[2H]C1([2H])CCC(c2nc3n(CC(=O)Nc4ccc(C(F)(F)F)cc4Cl)c(CC)c(N4CCN(C(=O)c5ncnc(C)c5O)[C@H]5CC[C@@H]54)c(=O)n3n2)=CCO1`, the IC50 in assay [1] is 0.00138 µM; with SW48 (CRC, MSI) (setting [2]), 0.00735 µM; in the assay on SW620 (CRC, MSS), over 10 µM.
As to `CCc1c(N2CCN(C(=O)c3ncnc(C)c3O)CC2)c(=O)n2nc(C3=CCC(C(=O)N(C)C)CC3)nc2n1CC(=O)Nc1ccc(C(F)(F)F)cc1Cl` (centres unmarked), the IC50 in assay [1] was 0.00084 µM; in the assay on SW48 (CRC, MSI) (setting [2]), 0.0277 µM and 0.0258 µM; in the assay on SW620 (CRC, MSS) it was over 10 µM.
`CCc1c(N2CCN(C(=O)c3ncnc(C)c3O)CC2)c(=O)n2nc(C3=CCC4(CC3)CCN(C)C4=O)nc2n1CC(=O)Nc1ccc(C(F)(F)F)cc1Cl` (centres unmarked): the IC50 in assay [1] was 0.00203 µM; in the assay on SW48 (CRC, MSI) (setting [2]), 0.0335 µM; in the assay with SW620 (CRC, MSS) it was over 10 µM.
With `CCc1c(N2CCN(C(=O)c3ncnc(C)c3O)CC2)c(=O)n2nc(C3=CCC(N4CCOC4=O)CC3)nc2n1CC(=O)Nc1ccc(C(F)(F)F)cc1Cl` (centres unmarked), the IC50 is 0.0039 µM in assay [1]; 0.079 µM in the assay on SW48 (CRC, MSI) (setting [2]); over 10 µM in the assay with SW620 (CRC, MSS).
`CCc1c(N2CCN(C(=O)c3ncnc(C)c3O)CC2)c(=O)n2nc(C3=CCC(S(=O)(=O)N(C)C)CC3)nc2n1CC(=O)Nc1ccc(C(F)(F)F)cc1Cl` (centres unmarked): the IC50 in assay [1] is 0.0018 µM; in the assay on SW48 (CRC, MSI) (setting [2]) it was 0.017 µM; in the assay with SW620 (CRC, MSS) it was over 10 µM.
For `CCc1c(N2CCN(C(=O)c3ncnc(C)c3O)CC2)c(=O)n2nc(C3=CCOCC3)nc2n1CC(=O)Nc1ccc(C(F)(F)F)c2occc12`, the IC50 in assay [1] is 0.00063 µM; in the assay on SW48 (CRC, MSI) (setting [2]), 0.0443 µM; with SW620 (CRC, MSS) it was over 10 µM.
The corresponding values for `CCc1c(N2CCN(C(=O)c3ncnc(C)c3O)CC2)c(=O)n2nc(C3=CCN(C(=O)N4CC(F)(F)C4)CC3)nc2n1CC(=O)Nc1ccc(C(F)(F)F)cc1Cl` are 0.0047 µM, 0.0452 µM and over 10 µM.
For `CCc1c(N2CCN(C(=O)c3ncnc(C)c3O)CC2)c(=O)n2nc(C3=CCC(C(=O)N4CCCC4)CC3)nc2n1CC(=O)Nc1ccc(C(F)(F)F)cc1Cl` (single isomer, unassigned), the IC50 in assay [1] (listed as 152-peak 1) is 0.00322 µM; in assay [1] (listed as 152-peak 2) it was 0.004 µM; in the assay on SW48 (CRC, MSI) (read-out: SW48 (CRC, MSI), 120 hours, listed as 152-peak 1) it was 0.0306 µM; in the assay with SW48 (CRC, MSI) (read-out: SW48 (CRC, MSI), 120 hours, listed as 152-peak 2), 0.0763 µM; with SW620 (CRC, MSS), over 10 µM.
For the compound `[2H]C1([2H])C=C(c2nc3n(CC(=O)Nc4scc(C(F)(F)F)c4C)c(CC)c(N4CCN(C(=O)c5ncnc(C)c5O)CC4)c(=O)n3n2)CCC([2H])([2H])O1`, the IC50 in assay [1] is 0.00201 µM; with SW48 (CRC, MSI) (setting [2]) it was 0.0485 µM; in the assay on SW620 (CRC, MSS), over 10 µM.
`CCc1c(N2CCN(C(=O)c3ncnc(C)c3O)CC2)c(=O)n2nc(C3=CCOCC3)nc2n1CC(=O)Nc1cc(C(F)(F)F)sc1Cl`: the IC50 in assay [1] was 0.0052 µM; in the assay with SW48 (CRC, MSI) (setting [2]) it was 0.0827 µM; in the assay on SW620 (CRC, MSS), over 10 µM.
The matching figures for `CCc1c(N2CCN(C(=O)c3ncnc(C)c3O)CC2)c(=O)n2nc(C3=CCN(S(C)(=O)=O)CC3)nc2n1CC(=O)Nc1ccc(C(F)(F)F)cc1Cl`: 0.00812 µM, 0.0509 µM and over 10 µM.
For `[2H]C1([2H])CCC(c2nc3n4c(c(N5CCN(C(=O)c6ncnc(C)c6O)[C@H]6CC[C@@H]65)c(=O)n3n2)C(C)CC4C(=O)Nc2scc(C(F)(F)F)c2C)=CCO1` (single isomer, unassigned), the IC50 in assay [1] is 0.00253 µM; with SW48 (CRC, MSI) (setting [2]) it was 0.00689 µM; with SW620 (CRC, MSS), over 10 µM.
The matching figures for `CCc1c(N2CCN(C(=O)c3ncnc(C)c3O)CC2)c(=O)n2nc(C3=CCC(C(=O)N(C(C)C)C(C)C)CC3)nc2n1CC(=O)Nc1ccc(C(F)(F)F)cc1Cl` (racemic): 0.0019 µM, 0.0425 µM and over 10 µM.
For `CCc1c(N2CCN(C(=O)c3ncnc(C)c3O)CC2)c(=O)n2nc(C3=CCN(C(=O)CC4CC4)CC3)nc2n1CC(=O)Nc1ccc(C(F)(F)F)cc1Cl`, the IC50 in assay [1] was 0.00931 µM; in the assay with SW48 (CRC, MSI) (setting [2]), 0.0433 µM; with SW620 (CRC, MSS), over 10 µM.
On to `CCc1c(N2CCN(C(=O)c3ncnc(C)c3O)CC2)c(=O)n2nc(C3=CCCOCC3)nc2n1CC(=O)Nc1ccc(C(F)(F)F)cc1Cl`, for which the IC50 in assay [1] is 0.0042 µM; in the assay on SW48 (CRC, MSI) (setting [2]), 0.0456 µM; in the assay on SW620 (CRC, MSS), over 10 µM.
The corresponding values for `CCc1c(N2CCN(C(=O)c3ncnc(C)c3O)CC2)c(=O)n2nc(C3=CCC(S(=O)(=O)C4CC4)CC3)nc2n1CC(=O)Nc1ccc(C(F)(F)F)cc1Cl` (centres unmarked) are 0.00305 µM, 0.052 µM and over 10 µM.
Take `CCc1c(N2CCN(C(=O)c3ncnc(C)c3O)CC2)c(=O)n2nc(C3=CCN(C(=O)OC4CCCC4)CC3)nc2n1CC(=O)Nc1ccc(C(F)(F)F)cc1Cl`: the IC50 in assay [1] is 0.00682 µM; with SW48 (CRC, MSI) (setting [2]), 0.0322 µM; with SW620 (CRC, MSS) it was over 10 µM.
The matching figures for `CCc1c(N2CCN(C(=O)c3ncnc(C)c3O)CC2)c(=O)n2nc(C3=CCOCCC3)nc2n1CC(=O)Nc1scc(C(F)(F)F)c1Cl`: 0.00232 µM, 0.0465 µM and over 10 µM.
`CCc1c(N2CCN(C(=O)c3ncnc(C)c3O)CC2)c(=O)n2nc(C3=CCC(C(=O)N4CC(F)(F)C4)CC3)nc2n1CC(=O)Nc1ccc(C(F)(F)F)cc1Cl` (racemic): the IC50 in assay [1] was 0.00481 µM; in the assay on SW48 (CRC, MSI) (setting [2]), 0.0598 µM; with SW620 (CRC, MSS), over 10 µM.
For the compound `CCc1c(N2CCN(C(=O)c3ncnc(C)c3O)CC2)c(=O)n2nc(C3=CCN(C(=O)OCC4CC4)CC3)nc2n1CC(=O)Nc1ccc(C(F)(F)F)cc1Cl`, the IC50 in assay [1] was 0.004 µM; in the assay on SW48 (CRC, MSI) (setting [2]), 0.0429 µM; in the assay with SW620 (CRC, MSS), over 10 µM.
The matching figures for `CCc1c(N2CCN(C(=O)c3ncnc(C)c3O)CC2)c(=O)n2nc(C3=CCOCC3)nc2n1CC(=O)Nc1scc(C(F)(F)F)c1C`: 0.00439 µM, 0.0434 µM and over 10 µM.
For `CCc1c(N2CCN(C(=O)c3ncnc(C)c3O)CC2)c(=O)n2nc(-c3ccc4ccoc4c3)nc2n1CC(=O)Nc1ccc(C(F)(F)F)cc1Cl`, the IC50 was 0.0029 µM in assay [1]; 0.0698 µM in the assay on SW48 (CRC, MSI) (setting [2]); over 10 µM with SW620 (CRC, MSS).
Turning to `CCc1c(N2CCN(C(=O)c3ncnc(C)c3O)CC2)c(=O)n2nc(C3=CCOCC3)nc2n1CC(=O)Nc1scc(C(F)(F)F)c1Cl`, the IC50 in assay [1] is 0.00869 µM; in the assay on SW48 (CRC, MSI) (setting [2]) it was 0.0725 µM; in the assay on SW620 (CRC, MSS), over 10 µM.
Take `CCc1c(N2CCN(C(=O)c3ncnc(C)c3O)CC2)c(=O)n2nc(C3=CCC(C(=O)N4CCC(F)(F)CC4)CC3)nc2n1CC(=O)Nc1ccc(C(F)(F)F)cc1Cl` (centres unmarked): the IC50 is 0.0023 µM in assay [1]; 0.0284 µM in the assay on SW48 (CRC, MSI) (setting [2]); over 10 µM in the assay with SW620 (CRC, MSS).
